## scFv variants of Ab-14 (heavy chain) against a SARS-CoV-2 spike peptide

Antigen: PDVDLGDISGINAS, a 14-residue peptide of the SARS-CoV-2 spike HR2 region.

Parent: Ab-14, a human scFv built as VH, a (GGGGS)3 linker, VL. Only the CDRs of the heavy chain vary.
VH: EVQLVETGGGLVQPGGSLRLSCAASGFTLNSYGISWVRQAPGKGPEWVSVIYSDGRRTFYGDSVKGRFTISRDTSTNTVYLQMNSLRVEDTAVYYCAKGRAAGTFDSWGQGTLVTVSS
VL: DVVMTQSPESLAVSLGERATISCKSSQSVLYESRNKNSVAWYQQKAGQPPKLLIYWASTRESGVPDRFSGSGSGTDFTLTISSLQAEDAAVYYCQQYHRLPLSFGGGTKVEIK

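These sequences belong to a second round, designed from the earlier measurements on random variants of the parent. Several design methods are mixed in this list. The scFvs were displayed on barcoded MATa yeast, the peptide on MATalpha yeast. The frequency of each diploid, read from paired DNA barcodes, reflects how well the two displayed proteins bind. The ratio of observed to expected reads was calibrated, replicate by replicate, on BCL2-family standards whose Kd was known from biolayer interferometry. Mating was done six times.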

Each variant is given by its three heavy chain CDRs, as the data file delimits them; those of the parent are GFTLNSYGIS, VIYSDGRRTFYGDSVK, GRAAGTFDS.
Values are log10 of the apparent Kd in nM; lower means stronger binding.
Averages over replicates are reported, and they cover detected replicates only.
A pair that was not seen in any replicate is written "not detected"; this usually means weak binding, but a binder can also be missed.
The parent sequence was in this pool as ten entries: three were never detected, three once, and four in most replicates, with averages from 0.34 to 2.37.
Nonspecific signal, from three strains lacking the peptide, appeared in 1% of pairings of all heavy chain designs, centred on 2.08 (5% of these signals below 0.84); values are not corrected for it.
The authors averaged sequences with at least three values out of six and counted those with two or fewer as poor binders.
Values of this round are not directly comparable with the first-round values of the same sequences.

CDR-H1,CDR-H2,CDR-H3,"mean, log10 nM",replicates with signal
GFDLNEYGIS,VIYADGQRTAYQDSVK,GNVAGTFDV,-0.79,6/6
GKNLDEYGIS,VIYADGQRTAYSKNVK,GTFDVKRVD,1.01,6/6
GFDIDEYGIS,VIYADGRRTAYADSVK,GTNAGTFDS,-0.02,6/6
GFNLNSYGIS,VIYSDGRRTFYIDSVS,GRAAWTFDS,not detected,0/6
GFNLNSYGIS,VIYSDGRRTFYGDAVK,GRQAGTFDS,2.41,3/6
GFTLNQYGIS,VIYSDGRRTAYGDSVK,GRAAGTFVS,0.70,5/6
GFDLNEYGIS,VIYADGRRTFYSDSVK,GETAGTFVS,-0.33,6/6
GFSLNSYGIS,VIYSDGRRTFYADHVK,GNAAGTFDK,not detected,0/6
GFDLNEYGIS,VIYADGSRTFYADSVK,GQNAGTFDV,-0.37,6/6
GQDLNEYGIS,VIYADGQRTSYAQSVK,NAGDITGLV,not detected,0/6
GFDLNLYGIS,VIYSDGRRTFYDDSVK,GQAAGTFDS,1.71,6/6
GFDIDEYGIS,VIYADGQRKAYTENVK,GRSGGMTVA,not detected,0/6
GFTLDEYGIS,VIYADGRRTFYSDSVK,GSNAGTFDV,-0.40,6/6
GFSLNSYGIS,VIYSDGRRTFYCDSVK,GQLAGTFDS,not detected,0/6
GFTLNSYGIS,VIYSDGRRAFYADSVK,ARADGTFDS,1.17,1/6
GFDLDEYGIS,VIYADGKRTFYADSVK,GENAGTFDL,-0.36,6/6
GFTLNEYGIS,VIYSDGLRTAYGDSVK,GRAAGTFDS,-0.07,6/6
GFDLNEYGIS,VIYSDGRRTFYGDSVK,GHAAGTFDS,0.02,6/6
MFSLNEYGIS,VIYSDGRRTFYGDSVK,GQTAGTFDS,0.80,6/6
GFDLEEYGIS,VIYADGQRTAYADSVK,GEVAGTFDV,-0.07,6/6
GDTLNSYGIS,VIYADGRRTFYGDSVK,GRAAGTFDS,0.01,1/6
GFTLNSYGIS,VIYSDGRRTSYGDSVS,GYAAGTFDS,not detected,0/6
GFNLNSYGIS,VIYSDGRRTFYGDRVK,GQTAGTFDL,0.01,2/6
GFKLNSYGIS,VIYSDGRRTFYGDNVK,GRTAGTFDS,1.38,5/6
GFTLNSYGIS,VIYSDGRRTFYDDHVK,GQLAGTFDS,2.08,2/6
GFSLDEYGIS,VIYADGVRQFYCDDVK,GGIAGTFNY,-0.28,4/6
GFTLESYGIS,VIYADGRRTFYGDRVK,GRAAGTFDV,1.09,3/6
GFTLNSYGIS,VIYSDGRRTFYGDSVD,GRAAGTFGS,not detected,0/6
GFTLNSYGIS,VIYADGMRTFYGDKVK,GRAAGTFDS,1.39,6/6
GFTLNSYGIS,VIYSDGRRNFYGDSVK,GAAAGTFDS,not detected,0/6
GFDLEEYGIS,VIYADGMRTQYINAVK,GIIGDIMDL,not detected,0/6
RFTLNQYGIS,VIWSDGRRTFYSDSVK,GRAAGHFDS,not detected,0/6
GFDLNEYGIS,VIYADGSRTAYADSVK,GEVAGTFDT,0.89,6/6
GFDLEEYGIS,VIYADGVRTAYSDSVK,GNVAGTFDV,0.01,6/6
GFDLNEYGIS,VIYADGLRTYYADSVK,GNNAGTFDV,1.58,6/6
GFTLNSYGIS,VIYSDGYRTFYGDSVK,GRAAGTFNH,not detected,0/6
GFDLNEYGIS,VIYADGQRQAYADSVK,GNVAGTFDV,-0.58,6/6
GFTLNSYGIS,VIYSDGRRQFYGDSVE,GRAAGTFDS,not detected,0/6
GFTLNSYGIS,VIYSDGRRTFYIDSVK,GNAAGTFDK,not detected,0/6
GFTLNSYGIS,VIYSDGRRTFYKDSVK,GQEAGTFDN,0.27,6/6
GFTLNEYGIS,VIYSDGKRTQYADSVK,GRAAGTFDS,0.54,6/6
GFNLNEYGIS,VIYADGRRTFYADSVK,GETAGTFDS,-0.65,6/6
GFTPNSYGIS,VIYSDGRRTFYGDSVK,GRYAATFDS,not detected,0/6
GFALNSYGIS,VIYSDGRRTFYDDSVK,GQIAGTFDS,0.35,3/6
GFDLNSYGIS,VIYSDGRRTFYGDSVK,GNAAGTFDT,not detected,0/6
GFVLNSYGIS,VIYSDGRRTFYADSVK,GTAAGTFDS,0.91,6/6
GFDLNEYGIS,VIYADGMRKFYADSVK,GNVAGTFDV,-0.42,6/6
GFSLNSYGIS,VIYSDGRRTFYMDSVK,GNVAGTFDS,0.55,6/6
GFTLNQYGIS,VIYSDGQRTFYSDSVK,GEAAGTFDS,0.21,6/6
GFVLNSYGIS,VIYSDGRRTFYADSVK,GQAAGTFDS,1.49,6/6
GFTLNSYGIS,VIYSDGRRTFYADDVK,GREAGTFDS,-0.28,6/6
KFNLNSYGIS,VIYSDGRRTFYADSVK,GRTAGTFDS,0.92,5/6
GFELNSYGIS,VIYSDGRRTAYGDDVK,GRTAGTFDS,0.08,6/6
GFDLNEYGIS,VIYADGRRTFYADSVK,GEVAGTFFS,-0.61,6/6
GFTLNSYGKS,VIYSDGLRTFYGDSVK,GRNAGTFDS,not detected,0/6
GFELDEYGIS,VIYADGRRTFYADSVK,GENAGTFDM,1.18,6/6
GQDLNEYGIS,VIYADGKRTAYEDSVK,GKSKGLIFV,not detected,0/6
GFLLNDYGIS,VIYSDGRRTFYKDSVK,GRAAGTFTS,not detected,0/6
GFTIDEYGIS,VIYADGQRVAYDEKFK,GMLAGTFDQ,0.11,6/6
GFDLNEYGIS,VIYADGRRTAYSDSVK,GEIAGTFDF,-0.54,6/6

10 of these entries, quoted again:

CDR-H1,CDR-H2,CDR-H3,"mean, log10 nM",replicates with signal
GFVLNSYGIS,VIYSDGRRTFYADSVK,GQAAGTFDS,1.49,6/6
GFNLNSYGIS,VIYSDGRRTFYGDAVK,GRQAGTFDS,2.41,3/6
RFTLNQYGIS,VIWSDGRRTFYSDSVK,GRAAGHFDS,not detected,0/6
GFTIDEYGIS,VIYADGQRVAYDEKFK,GMLAGTFDQ,0.11,6/6
GFTLESYGIS,VIYADGRRTFYGDRVK,GRAAGTFDV,1.09,3/6
GFTLDEYGIS,VIYADGRRTFYSDSVK,GSNAGTFDV,-0.40,6/6
GFDLNLYGIS,VIYSDGRRTFYDDSVK,GQAAGTFDS,1.71,6/6
GFNLNSYGIS,VIYSDGRRTFYGDRVK,GQTAGTFDL,0.01,2/6
GFDLNEYGIS,VIYADGSRTFYADSVK,GQNAGTFDV,-0.37,6/6
GFTLNSYGKS,VIYSDGLRTFYGDSVK,GRNAGTFDS,not detected,0/6

Source: Li et al. 2023 (doi:10.1038/s41467-023-39022-2), MIT Lincoln Laboratory and A-Alpha Bio; data file from the FLAb repository.